Melting point values, as collected for the OPERA models

Data: OPERA 2.9 data sets, kmansouri/OPERA on GitHub.

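OPERA's authors assembled the values from existing databases and did not measure them anew. The files give a single number for a compound and property, which may rest on several reports. How each value was measured is not recorded, so precision varies. A value may pool stereoisomers or salt forms, and the file does not say which form was measured. Some entries may be limits or estimates that an upstream database listed as plain numbers.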

Melting points are in °C.
"via" names the databases from which the curators took the value.

structure (SMILES)	mp (°C)	via
O=C(O)c1cn(Cc2ccccc2)c2ccccc12	193	OCHEM
Brc1cc(Br)c(OCCOc2c(Br)cc(Br)cc2Br)c(Br)c1	222	PubChem
Clc1ccc(-c2ccc(Cl)c(Cl)c2)cc1	88	QSARDB
Clc1ccc(Cl)c(-c2c(Cl)ccc(Cl)c2Cl)c1Cl	114	QSARDB
Cc1ccc(C(=O)CCl)s1	46	OCHEM
O=c1cc(CCl)occ1O	167	OCHEM
CCCCCCCCOC(=O)c1ccc(C(=O)OCCCCCCCC)c(C(=O)OCCCCCCCC)c1	-57	eChemPortal
CC(C)c1cc(Cc2cc(C(C)C)c(N)c(C(C)C)c2)cc(C(C)C)c1N	60.8	eChemPortal
O=C(O)c1cnn(Cc2ccccc2)c1	150	OCHEM
CC(Cl)C(=O)NC(N)=O (centres undefined)	160	OCHEM
CO[Si](C)(CN=C=O)OC	-63.7	eChemPortal
Brc1cc(Br)c(-c2ccccc2)c(Br)c1	66	QSARDB
OC(c1ccccc1)(c1ccccc1)C1CCCCN1 (centres undefined)	97.5	PubChem
COCCn1c(C)cc(C=O)c1C	45	OCHEM
Cc1ccc(C(=O)CCl)cc1C	52	OCHEM
NC1CC1c1ccc(F)c(F)c1.O=C(O)C(O)c1ccccc1 (centres undefined)	178.7	eChemPortal
CN(/N=C/c1ccc(Br)cc1)P(=O)(N1CC1)N1CC1	118	OCHEM
c1ccc2c(c1)ccc1c3ccc4ccccc4c3[nH]c21	216	QSARDB
CN1CCN(Cc2ccc(N)cc2)CC1	97	OCHEM
COC(=O)[C@H]1CN(C)[C@@H]2Cc3c[nH]c4cccc(c34)[C@@]2(OC)C1	180.6	eChemPortal
CSc1nc(=O)cc(CCl)[nH]1	177	OCHEM
Clc1cccc(-c2ccc(Cl)c(Cl)c2Cl)c1Cl	119	QSARDB
Clc1ccc(-c2cc(Cl)ccc2Cl)cc1	67	QSARDB
C[C@H](Cl)C(=O)c1ccc(Br)cc1	55	OCHEM
COc1cc(F)c(F)cc1CBr	41.5	OCHEM
CCN(N=O)C(N)=O	103	PubChem, QSARDB
c1ccc2[nH]c(C3CCCNC3)nc2c1 (centres undefined)	190	OCHEM
CCC1(C)C(=O)NC(=O)NC1=O	216	OCHEM
CN(C)CCN=C=S	36	OCHEM
CN(C)C(=S)[S-].CN(C)C(=S)[S-].[Pb+2]	310	PubChem
C[C@]12CCC(=O)C[C@@H]1CC[C@@H]1[C@@H]2CC[C@]2(C)C(=O)CC[C@@H]12	142	QSARDB
CC(C)CNC(=O)C(C)Cl (centres undefined)	38	OCHEM
Clc1ccc2oc3ccc(Cl)cc3c2c1	184	OCHEM, QSARDB
CCC(=O)C(CC(C)N(C)C)(c1ccccc1)c1ccccc1.Cl (centres undefined)	235	OCHEM
Clc1ccc(-c2ccc(Cl)cc2Cl)cc1	57	QSARDB
CCCn1c(C)cc(C=O)c1C	53	OCHEM
C[N+](C)(C)Cc1ccccc1.[I-]	182	OCHEM
O=C(O)CCCCCNc1nc(NCCCCCC(=O)O)nc(NCCCCCC(=O)O)n1	186	eChemPortal

Excerpt, the opening 3 entries:

| structure (SMILES) | mp (°C) | via |
|---|---|---|
| O=C(O)c1cn(Cc2ccccc2)c2ccccc12 | 193 | OCHEM |
| Brc1cc(Br)c(OCCOc2c(Br)cc(Br)cc2Br)c(Br)c1 | 222 | PubChem |
| Clc1ccc(-c2ccc(Cl)c(Cl)c2)cc1 | 88 | QSARDB |